Test results reported in US6455550B1, “N-alkanoylphenylalanine derivatives” (Hoffmann-La Roche Inc., priority 1997, dated 2002).
Read-outs that look alike come from different tables or passages of the source.

Chains of the proteins cited; added tags and fusions are not shown. Residues count along the entry.
UniProt P13612, 34-1032: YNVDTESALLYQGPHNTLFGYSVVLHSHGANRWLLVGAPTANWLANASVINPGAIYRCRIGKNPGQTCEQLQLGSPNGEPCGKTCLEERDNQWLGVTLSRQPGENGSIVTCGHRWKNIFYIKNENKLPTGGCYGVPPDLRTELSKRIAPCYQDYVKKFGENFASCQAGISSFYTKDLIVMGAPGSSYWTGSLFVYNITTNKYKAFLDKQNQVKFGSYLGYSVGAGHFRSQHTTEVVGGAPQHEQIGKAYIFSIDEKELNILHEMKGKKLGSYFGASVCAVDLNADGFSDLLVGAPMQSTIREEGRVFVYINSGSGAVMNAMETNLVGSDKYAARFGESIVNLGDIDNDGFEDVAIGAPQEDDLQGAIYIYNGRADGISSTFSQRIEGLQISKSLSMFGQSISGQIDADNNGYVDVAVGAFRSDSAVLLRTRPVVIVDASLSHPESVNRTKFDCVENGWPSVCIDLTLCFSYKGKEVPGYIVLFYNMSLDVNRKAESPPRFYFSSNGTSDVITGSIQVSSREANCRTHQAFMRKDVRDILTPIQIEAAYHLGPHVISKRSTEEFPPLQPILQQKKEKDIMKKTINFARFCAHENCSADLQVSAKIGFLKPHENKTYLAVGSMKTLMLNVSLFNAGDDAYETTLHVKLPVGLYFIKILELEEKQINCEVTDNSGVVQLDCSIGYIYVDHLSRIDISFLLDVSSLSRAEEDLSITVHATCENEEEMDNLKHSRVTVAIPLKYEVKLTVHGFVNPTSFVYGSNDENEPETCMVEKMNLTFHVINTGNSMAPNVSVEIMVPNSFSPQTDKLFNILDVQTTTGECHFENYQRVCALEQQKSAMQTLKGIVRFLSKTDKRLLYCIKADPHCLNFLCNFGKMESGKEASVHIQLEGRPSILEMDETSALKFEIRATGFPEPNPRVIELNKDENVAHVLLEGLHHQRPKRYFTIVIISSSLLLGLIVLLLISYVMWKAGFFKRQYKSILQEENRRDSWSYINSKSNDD

What was measured:
[1] = biological target: T1, VLA-4 (α4β1 integrin) binding to immobilized VCAM-1 (Homo sapiens, UniProt P05556+P13612); assay: VLA-4/VCAM-1 Screening Assay (solid-phase, dual antibody ELISA); conditions: Ramos cell-derived VLA-4, recombinant human VCAM-1 coated plates, 2 hr at 37° C.
T1 construct: followed by 10 μl of Ramos cell-derived VLA-4; endogenous in cells; host or cells: Ramos cells (VLA-4 preparation derived from the cells)
Description: VLA-4 antagonist activity, defined as ability to compete for binding to immobilized VCAM-1 was quantitated using a solid-phase, dual antibody ELISA. VLA-4 (α4β1 integrin) bound to VCAM-1 was detected by a complex of anti-integrin β1 antibody: HRP-conjugated anti-mouse IgG: chromogenic substrate (K-Blue). Initially, this entailed coating 96 well plates (Nunc Maxisorp) with recombinant human VCAM-1 (0.4 μg in 100 μl PBS), sealing each plate and then allowing the plates to stand at 4° C for Å18 hr. […] On the day of assay, all plates were washed twice with VCAM Assay Buffer (200 μl/well of 50 mM Tris-HCl, 100 mM NaCl, 1 mM MnCl2, 0.05% Tween 20; pH 7.4). Test compounds were dissolved in 100% DMSO and then diluted 1:20 in VCAM Assay Buffer supplemented with 1 mg/mL BSA (i.e., final DMSO=5%). […] 100 μl per well of each dilution was added to the VCAM-coated plates, followed by 10 μl of Ramos cell-derived VLA-4. These plates were sequentially mixed on a platform shaker for 1 min, incubated for 2 hr at 37° C. and then washed four times with 200 μl/well VCAM Assay Buffer. 100 μl of mouse anti-human integrin β1 antibody was added to each well (0.6 μg/mL in VCAM Assay Buffer+1 mg/mL BSA) and allowed to incubate for 1 hr at 37° C. At the conclusion of this incubation period, all plates were washed four times with VCAM Assay Buffer (200 μl/well). A corresponding second antibody, HRP-conjugated goat anti-mouse IgG (100 μl per well @1:800 dilution in VCAM Assay Buffer+1 mg/mL BSA), was then added to each well, followed by a 1 hr incubation at room temperature and concluded by three washes (200 μl/well) with VCAM Assay Buffer. Color development was initiated by addition of 100 μl K-Blue per well (15 min incubation, room temp) and terminated by addition of 100 μl Red Stop Buffer per well. […] Results were calculated as % inhibition of total binding (i.e., VLA-4+VCAM-1 in the absence of test compound).

[2] = biological target: T2, cell-surface VLA-4 (α4β1 integrin) on Ramos cells binding to immobilized VCAM-1 (Homo sapiens, UniProt P05556+P13612); assay: Ramos (VLA-4)/VCAM-1 Cell-Based Screening Assay (cell adhesion); conditions: Calcein-AM labeled Ramos cells, VCAM-1 coated plates, 45 min at room temperature
T2 construct: Ramos cells bearing cell-surface VLA-4; endogenous in cells; host or cells: Ramos cells (VLA-4); VCAM-1 purified from CHO cell culture media
Text: Calcein-AM was purchased from Molecular Probes Inc.
VLA-4 (α4β1 integrin) antagonist activity, defined as ability to compete with cell-surface VLA-4 for binding to immobilized VCAM-1, was quantitated using a Ramos-VCAM-1 cell adhesion assay. Ramos cells bearing cell-surface VLA-4, were labeled with a fluorescent dye (Calcein-AM) and allowed to bind VCAM-1 in the presence or absence of test compounds.
Initially, this entailed coating 96 well plates (Nunc Maxisorp) with recombinant human VCAM-1 (100 ng in 100 μl PBS), sealing each plate and allowing the plates to stand at 4° C for Å18 hr. The VCAM-coated plates were subsequently washed twice with 0.05% Tween-20 in PBS, and then blocked for 1hr (room temperature) with 200 μl of Blocking Buffer (1% BSA/0.02% thimerosal) to reduce non-specific binding. Following the incubation with Blocking Buffer, plates were inverted, blotted and the remaining buffer aspirated. Each plate was then washed with 300 μl PBS, inverted and the remaining PBS aspirated.
Test compounds were dissolved in 100% DMSO and then diluted 1:25 in VCAM Cell Adhesion Assay Buffer (4 mM CaCl2, 4 mM MgCl2 in 50 mM TRIS-HCl, pH 7.5) (final DMSO=4%). […] 100 μl/well of each dilution was added to the VCAM-coated plates, followed by 100 μl of Ramos cells (200,000 cells/well in 1% BSA/PBS). […] Plates were inverted to remove non-adherent cells, blotted and 300 μl/well PBS added. Plates were again inverted, blotted and the remaining buffer gently aspirated. 100 μl Lysis Buffer (0.1% SDS in 50 mM TRIS-HCl, pH 8.5) was added to each well and agitated for 2 min on a rotary shaking platform.

[3] = IC50 in Ramos Cell Based Assay (nM)

## CNC(=O)N(C)CCC1(C(=O)N[C@@H](Cc2ccc(NC(=O)c3c(Cl)cccc3Cl)cc2)C(=O)O)CCCC1 [Example 201, 4-[[(2,6-Dichlorophenyl)carbonyl]amino]-N-[[1-[2-[[(methylamino)carbonyl](methyl)amino]ethyl]cyclopentyl]carbonyl]-L-phenylalanine]
[1]; read-out: IC50
  IC50: 1.2 nM
[2]; [3]
  IC50: 19 nM

## O=C(Nc1ccc(C[C@H](NC(=O)C2(CCNC(=O)C(F)(F)F)CCCC2)C(=O)O)cc1)c1c(Cl)cccc1Cl [Example 203, 4-[[(2,6-Dichlorophenyl)carbonyl]amino]-N-[[1-[2-[(trifluoroacetyl)amino]ethyl]cyclopentyl]carbonyl]-L-phenylalanine]
[1]; read-out: IC50
  IC50: 0.64 nM
[2]; [3]
  IC50: 47 nM

## CS(=O)(=O)NCCC1(C(=O)N[C@@H](Cc2ccc(NC(=O)c3c(Cl)cccc3Cl)cc2)C(=O)O)CCCC1 [Example 194, 4-[[(2,6-Dichlorophenyl)carbonyl]amino]-N-[[1-[2-[(methylsulfonyl)amino]ethyl]cyclopentyl]carbonyl]-L-phenylalanine]
[1]; read-out: IC50
  IC50: 0.33 nM
[2]; [3]
  IC50: 27 nM

## CC(=O)NCCC1(C(=O)N[C@@H](Cc2ccc(NC(=O)c3c(Cl)cccc3Cl)cc2)C(=O)O)CCCC1 [Example 251]
[1]; IC50 nM
  IC50: 0.37 nM
[2]; read-out: IC50 in Ramos Cell Based Assay
  IC50: 9 nM

## COc1ccc(CC2(C(=O)N[C@@H](Cc3ccc(NC(=O)c4c(Cl)cccc4Cl)cc3)C(=O)O)CCCCC2)cc1 [Example 47, 4-[[(2,6-Dichlorophenyl)carbonyl]amino]-N-[[1-(4-methoxyphenylmethyl)cyclohexyl]carbonyl]-L-phenylalanine]
[1]; read-out: IC50
  IC50: 2.5 nM
